Only a part is listed here, and it is no random draw. Calls of active or inactive are those of the source. No stated cut-off is given here; in the data, active means inhibition above about 50%; inactive means the rest.
molecular target: Serine/threonine-protein kinase D1 (Homo sapiens) (UniProt Q15139); assay: protein kinase D1 activity blockers – biochemical, fluorescence polarization (AID 797); conditions: PKD1 kinase fluorescence polarization assay; stronger effect = higher value; concentration not given here

Chains of the proteins cited; added tags and fusions are not shown.
UniProt Q15139, whole entry: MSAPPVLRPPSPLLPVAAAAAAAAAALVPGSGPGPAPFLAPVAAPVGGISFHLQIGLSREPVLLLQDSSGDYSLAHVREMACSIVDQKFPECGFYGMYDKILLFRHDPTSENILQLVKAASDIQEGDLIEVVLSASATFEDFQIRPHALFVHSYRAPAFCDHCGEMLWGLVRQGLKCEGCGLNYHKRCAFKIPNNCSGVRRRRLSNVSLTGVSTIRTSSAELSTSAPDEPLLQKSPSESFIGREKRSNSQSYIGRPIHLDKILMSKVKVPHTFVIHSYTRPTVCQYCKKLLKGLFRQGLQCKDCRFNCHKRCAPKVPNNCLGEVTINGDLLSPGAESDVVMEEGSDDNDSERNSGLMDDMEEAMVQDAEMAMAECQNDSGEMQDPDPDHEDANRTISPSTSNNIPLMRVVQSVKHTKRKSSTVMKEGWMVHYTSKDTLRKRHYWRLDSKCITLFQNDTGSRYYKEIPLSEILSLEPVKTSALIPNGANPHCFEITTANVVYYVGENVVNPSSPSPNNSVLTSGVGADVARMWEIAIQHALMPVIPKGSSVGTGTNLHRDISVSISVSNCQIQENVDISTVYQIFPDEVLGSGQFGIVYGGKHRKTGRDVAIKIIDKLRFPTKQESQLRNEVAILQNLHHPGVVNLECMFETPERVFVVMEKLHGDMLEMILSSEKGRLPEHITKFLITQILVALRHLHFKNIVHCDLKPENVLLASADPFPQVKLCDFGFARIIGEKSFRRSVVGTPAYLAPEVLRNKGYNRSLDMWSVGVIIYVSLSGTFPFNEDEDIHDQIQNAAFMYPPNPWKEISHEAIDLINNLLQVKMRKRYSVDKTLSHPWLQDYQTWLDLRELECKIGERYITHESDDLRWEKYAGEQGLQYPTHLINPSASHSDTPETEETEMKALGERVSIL

Which inhibition does the source give for `CP(=S)(Nn1cnnc1)Oc1ccccc1` (stereo not given) here?
The inhibition was inactive: 1.88%.

`CP(=O)(Nc1ccccc1Br)Oc1ccccc1` (stereo not given) was tested. Which inhibition did it give?
Its inhibition is inactive: 1.24%.

For `COc1ccccc1OP(C)(=O)Nc1ccccc1` (stereo not given), which inhibition is on record?
Its inhibition is inactive: -5.4%.

For `O=P(Nc1ccccn1)(c1cccc2ccccc12)c1cccc2ccccc12`, which inhibition is on record?
The inhibition was inactive: 1.78%.

How did the inhibition turn out when `Cc1cc(SC(NC=O)C(Cl)(Cl)Cl)ncn1` (stereo not given) was run?
Its inhibition is inactive: -4.7%.

With `Cc1cc(SC(NC(=O)c2ccccc2)C(Cl)(Cl)Cl)nc(C(C)C)n1` (stereo not given) as the molecule, how does the inhibition read?
The inhibition was inactive: 2.98%.

Which inhibition does the source give for `CCOC(=O)c1ccc(NP(C)(=O)Oc2ccc(OC)cc2)cc1` (stereo not given) here?
Its inhibition is inactive: 10.3%.

`CCOP(C)(=S)SCC(=O)NC(C)C(=O)O` (stereo not given) was tested. Which inhibition did it give?
Its inhibition is inactive: -4.26%.

With `CP(=O)(Nc1ccccn1)Oc1ccc(Cl)cc1` (stereo not given) as the molecule, how does the inhibition read?
Its inhibition is inactive: -4.7%.

How did the inhibition turn out when `CCC(C)N(CC(C)C)C(=S)SC(NC(C)=O)C(Cl)(Cl)Cl` (stereo not given) was run?
Its inhibition is inactive: 0.95%.

With `CP(=O)(Oc1ccccc1)OC(c1ccccc1)C(F)(F)F` (stereo not given) as the molecule, how does the inhibition read?
The inhibition was inactive: -0.76%.

With `COP1(=S)c2c(C)nn(CCC#N)c2N=C(c2ccc(F)cc2)N1C` (stereo not given) as the molecule, how does the inhibition read?
Its inhibition is inactive: -5.02%.

`Cc1cccc(C)c1OP(C)(=O)Nc1ccc(SC(F)(F)F)cc1` (stereo not given) was tested. Which inhibition did it give?
The inhibition was inactive: -4.35%.

Which inhibition does the source give for `Cc1cc(C)cc(OP(C)(=O)Nc2ccc(SC(F)(F)F)cc2)c1` (stereo not given) here?
The inhibition was inactive: -10.9%.

Which inhibition does the source give for `O=C(COc1ccccc1)OC1CN2CCC1CC2` (stereo not given) here?
The inhibition was inactive: -0.91%.

Which inhibition does the source give for `CP(=O)(NC(=O)Nc1ccccc1)Oc1ccccc1` (stereo not given) here?
Its inhibition is inactive: -14.3%.

Which inhibition does the source give for `COc1ccc(N/C(=N/P(=O)(N2CCOCC2)N2CCOCC2)N2CCOCC2)cc1` here?
Its inhibition is inactive: -0.54%.

With `CCN(CC)CCCOC(=O)C(O)(c1ccccc1)c1ccccc1` as the molecule, how does the inhibition read?
The inhibition was inactive: 9.21%.

How did the inhibition turn out when `Cc1cc(=O)[nH]c(N[N+](=O)[O-])n1` was run?
The inhibition was inactive: -3.83%.

For `O=C(OC1CN2CCC1CC2)C12CC3CC(CC(C3)C1)C2` (stereo not given), which inhibition is on record?
The inhibition was inactive: 20.8%.

`Cc1c2c(nc3ccccc13)SC(C(Cl)Cl)C2` (stereo not given) was tested. Which inhibition did it give?
Its inhibition is inactive: -9.02%.

How did the inhibition turn out when `COc1ccc2nc(NP(=O)(c3ccccc3)c3ccccc3)sc2c1` was run?
Its inhibition is inactive: -8.69%.

How did the inhibition turn out when `Cc1ccc(NP(C)(=O)Oc2ccccc2)c(C)c1` (stereo not given) was run?
The inhibition was inactive: -12%.

With `COc1ccccc1OP(C)(=O)Nc1ccc(C)cc1` (stereo not given) as the molecule, how does the inhibition read?
The inhibition was inactive: -9.68%.

With `ClCCSc1nnc(-c2cccnc2)o1` as the molecule, how does the inhibition read?
Its inhibition is inactive: -9.63%.

Which inhibition does the source give for `CCOC(=O)c1ccc(NP(C)(=O)Oc2ccccc2)cc1` (stereo not given) here?
The inhibition was inactive: -8.42%.

`Cc1cc(C)cc(OP(C)(N)=O)c1` (stereo not given) was tested. Which inhibition did it give?
The inhibition was inactive: -0.3%.

With `COc1ccc(OP(C)(=O)Nc2cccc(F)c2)cc1` (stereo not given) as the molecule, how does the inhibition read?
Its inhibition is inactive: -4.29%.

Which inhibition does the source give for `O=[N+]([O-])c1cc([N+](=O)[O-])c(-c2ccn[nH]2)s1` here?
Its inhibition is inactive: -1.39%.

`COc1ccccc1OP(C)(=O)Nc1cc(Cl)ccc1C` (stereo not given) was tested. Which inhibition did it give?
Its inhibition is inactive: -7.92%.

Which inhibition does the source give for `CC(C)NC(=O)NP(=O)(Oc1ccccc1)Oc1ccccc1` here?
Its inhibition is inactive: 2.37%.

For `CCN(CC)C(=S)SC(NC=O)C(Cl)(Cl)Cl` (stereo not given), which inhibition is on record?
The inhibition was inactive: 9.63%.

Which inhibition does the source give for `O=[N+]([O-])c1ccc2c(c1)C=Nc1ccccc1O2` here?
The inhibition was inactive: -1.87%.

With `Cc1ccc2nc3c(c(C)c2c1)CC(C(Cl)Cl)S3` (stereo not given) as the molecule, how does the inhibition read?
Its inhibition is inactive: -4.18%.

For `Cc1cccc(C)c1OP(C)(N)=O` (stereo not given), which inhibition is on record?
The inhibition was inactive: -2.41%.

Which inhibition does the source give for `CC(C)(C)c1ccc(OP(C)(=O)Nc2ccc(SC(F)(F)F)cc2)cc1` (stereo not given) here?
Its inhibition is inactive: 6.73%.

With `CC1=NCCc2c1[nH]c1ccccc21.O=[N+]([O-])c1cc([N+](=O)[O-])c(O)c([N+](=O)[O-])c1` as the molecule, how does the inhibition read?
Its inhibition is inactive: -1.57%.

`O=[N+]([O-])c1ccc2c(c1)nnn2O` was tested. Which inhibition did it give?
The inhibition was inactive: 4.42%.

How did the inhibition turn out when `CCOP1(=S)c2c(C)nn(CCC#N)c2N=C(c2ccc(F)cc2)N1C` (stereo not given) was run?
Its inhibition is inactive: -2.7%.

For `O=P(Nc1nccs1)(Oc1ccccc1)Oc1ccccc1`, which inhibition is on record?
The inhibition was inactive: 1.41%.

`O=P(Nc1nccs1)(c1ccccc1)c1nc2ccccc2s1` (stereo not given) was tested. Which inhibition did it give?
The inhibition was inactive: -11.4%.

For `CCOP1(=S)c2c(C)nn(CCC#N)c2N=C(c2ccccc2F)N1C` (stereo not given), which inhibition is on record?
The inhibition was inactive: -10.5%.

How did the inhibition turn out when `Cc1ccc(C)c(NP(C)(=O)Oc2ccccc2)c1` (stereo not given) was run?
Its inhibition is inactive: -7.74%.

With `Cc1ccc(NCCc2c([N+](=O)[O-])cc([N+](=O)[O-])cc2[N+](=O)[O-])cc1` as the molecule, how does the inhibition read?
Its inhibition is inactive: -6.12%.

`Cc1cc(C)cc(OP(C)(=O)Nc2ccccn2)c1` (stereo not given) was tested. Which inhibition did it give?
The inhibition was inactive: -0.75%.

Which inhibition does the source give for `CP(=O)(Nc1cccc(Br)c1)Oc1ccccc1` (stereo not given) here?
Its inhibition is inactive: 2.89%.

For `CCOP(=O)(Nc1cccc2ccccc12)OCC`, which inhibition is on record?
The inhibition was inactive: -7.21%.

For `COc1cc(C(=O)NCC2(N3CCOCC3)CCCCC2)cc(Cl)c1OC(C)C`, which inhibition is on record?
Its inhibition is inactive: 0.06%.

Which inhibition does the source give for `CCOC(=O)c1ccc(NP(C)(=O)Oc2cc(C)cc(C)c2)cc1` (stereo not given) here?
Its inhibition is inactive: -13.8%.

How did the inhibition turn out when `Cc1cc(C)cc(OP(C)(=O)Nc2ccc(C)cc2C)c1` (stereo not given) was run?
Its inhibition is inactive: 0.91%.

`Cc1cccc(OCC(=O)OC2CN3CCC2CC3)c1` (stereo not given) was tested. Which inhibition did it give?
The inhibition was inactive: -2.92%.

Which inhibition does the source give for `Cc1nc2ccc3ccccc3c2s1.O=[N+]([O-])c1cc([N+](=O)[O-])c(O)c([N+](=O)[O-])c1` here?
Its inhibition is inactive: -10.4%.

`CC1(CBr)Cn2c(nc3ccccc3c2=O)S1` (stereo not given) was tested. Which inhibition did it give?
The inhibition was inactive: -4.47%.

Which inhibition does the source give for `CC(C)/C=N\N=C(\N)N[N+](=O)[O-]` here?
The inhibition was inactive: -3.98%.

For `O=[N+]([O-])c1cc([N+](=O)[O-])c(-n2nnc3ccccc32)c([N+](=O)[O-])c1`, which inhibition is on record?
Its inhibition is inactive: 3.7%.

`O=P1(Nc2ccccn2)COc2ccccc2OC1` was tested. Which inhibition did it give?
Its inhibition is inactive: 10.8%.

Which inhibition does the source give for `Clc1n[nH]nc1-c1nn[nH][15n]1` here?
The inhibition was inactive: -3.01%.

With `COc1ccccc1OP(C)(=O)Nc1c(C)cccc1C` (stereo not given) as the molecule, how does the inhibition read?
The inhibition was inactive: 0.15%.

For `CN1CCCCC1COC(=O)C1(O)c2ccccc2CCc2ccccc21` (stereo not given), which inhibition is on record?
Its inhibition is inactive: 8.93%.

With `O=P1(Nc2ncccn2)COc2ccccc2OC1` as the molecule, how does the inhibition read?
The inhibition was inactive: -3%.

With `Cc1ccc(OCC(=O)OC2CN3CCC2CC3)cc1` (stereo not given) as the molecule, how does the inhibition read?
Its inhibition is inactive: -2.16%.

For `O=P1(Nc2ccc(Br)cn2)COc2ccccc2OC1`, which inhibition is on record?
Its inhibition is inactive: -0.16%.

How did the inhibition turn out when `CCCOc1ccc(NP(C)(=O)Oc2ccc(Cl)cc2)cc1` (stereo not given) was run?
Its inhibition is inactive: -0.55%.

For `CP(=O)(Nc1ccc(SC(F)(F)F)cc1)Oc1ccccc1` (stereo not given), which inhibition is on record?
The inhibition was inactive: -8.72%.

With `COc1cc(C2NCCC3(OCCO3)C2(C)C)cc(OC)c1OC.O=[N+]([O-])c1cc([N+](=O)[O-])c(O)c([N+](=O)[O-])c1` (stereo not given) as the molecule, how does the inhibition read?
Its inhibition is inactive: 0.38%.

Reference: PubChem BioAssay AID797 (University of Pittsburgh Molecular Library Screening Center, 2007)
